Measurements published in ChEMBL document CHEMBL1130195, “6-Chloro-5-methyl-1-[[2-[(2-methyl-3-pyridyl)oxy]-5-pyridyl]carbamoyl]- indoline (SB-242084): the first selective and brain penetrant 5-HT2C receptor antagonist” (J Med Chem, 1997).

Sequences of proteins named here, by UniProt entry; tags and fusion partners are left off. A change or cut given only in a name is not applied to a line headed by its entry.
UniProt P28335: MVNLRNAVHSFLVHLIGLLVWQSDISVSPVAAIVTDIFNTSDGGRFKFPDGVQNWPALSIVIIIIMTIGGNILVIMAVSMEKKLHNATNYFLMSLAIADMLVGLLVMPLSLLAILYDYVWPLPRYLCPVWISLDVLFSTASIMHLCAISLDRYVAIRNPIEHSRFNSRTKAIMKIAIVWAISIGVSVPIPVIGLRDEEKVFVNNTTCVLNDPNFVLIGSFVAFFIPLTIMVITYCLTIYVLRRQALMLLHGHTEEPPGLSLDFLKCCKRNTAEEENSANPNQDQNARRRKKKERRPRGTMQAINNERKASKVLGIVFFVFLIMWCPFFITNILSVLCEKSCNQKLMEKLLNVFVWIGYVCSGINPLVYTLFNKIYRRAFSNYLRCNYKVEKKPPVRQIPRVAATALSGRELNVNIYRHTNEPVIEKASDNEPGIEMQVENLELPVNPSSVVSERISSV

Biological target: 5-hydroxytryptamine receptor 2C (Homo sapiens, UniProt P28335)
Assay: Displacement of [3H]mesulergine from 5-hydroxytryptamine 2C receptor expressed in HEK 293 cells
Type: cell-based, HEK293
Outline: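 Human cloned receptors expressed in HEK 293 cells. Radioligands: [3H]5-HT for 5-HT2B, [3H]ketanserin for 5-HT2A, [3H]mesulergine for 5-HT2C. Each value is the mean of at least two determinations, each within 0.2 log unit of the mean.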

Ki: 12.6 nM
Structure (SMILES): Cn1ccc2cc3c(cc21)CCN3C(=O)Nc1cccnc1
